Measured values as given in publication PMC9240326, “BacPROTACs mediate targeted protein degradation in bacteria” (Cell, 2022).

Chains of the proteins cited; added tags and fusions are not shown. Residues count along the entry.
UniProt P37571, whole entry E280A/E618A: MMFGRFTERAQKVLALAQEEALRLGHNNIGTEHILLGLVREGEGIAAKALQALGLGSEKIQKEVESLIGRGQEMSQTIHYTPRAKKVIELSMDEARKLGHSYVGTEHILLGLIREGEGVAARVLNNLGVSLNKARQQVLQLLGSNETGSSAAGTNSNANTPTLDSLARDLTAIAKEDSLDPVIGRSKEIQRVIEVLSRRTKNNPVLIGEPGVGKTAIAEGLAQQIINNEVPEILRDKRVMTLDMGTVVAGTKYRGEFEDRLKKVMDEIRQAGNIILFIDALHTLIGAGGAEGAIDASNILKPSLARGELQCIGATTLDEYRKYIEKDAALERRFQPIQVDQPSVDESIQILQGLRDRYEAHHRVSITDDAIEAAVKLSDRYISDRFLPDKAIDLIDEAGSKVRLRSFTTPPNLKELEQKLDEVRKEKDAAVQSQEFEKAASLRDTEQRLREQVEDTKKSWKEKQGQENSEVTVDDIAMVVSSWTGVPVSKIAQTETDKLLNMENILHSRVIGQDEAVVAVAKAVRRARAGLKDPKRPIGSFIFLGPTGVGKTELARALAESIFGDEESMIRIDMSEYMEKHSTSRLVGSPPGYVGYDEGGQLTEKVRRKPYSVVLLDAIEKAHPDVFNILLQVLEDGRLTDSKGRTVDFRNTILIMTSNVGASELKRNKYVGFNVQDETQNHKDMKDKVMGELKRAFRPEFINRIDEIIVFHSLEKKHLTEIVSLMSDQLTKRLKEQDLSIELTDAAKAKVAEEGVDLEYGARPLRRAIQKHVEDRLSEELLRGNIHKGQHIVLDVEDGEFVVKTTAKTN
UniProt A0R574, 1-148 limits assumed: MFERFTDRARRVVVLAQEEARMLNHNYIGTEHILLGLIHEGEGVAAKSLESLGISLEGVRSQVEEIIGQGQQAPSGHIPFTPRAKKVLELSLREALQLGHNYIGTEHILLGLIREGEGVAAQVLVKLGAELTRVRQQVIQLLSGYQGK
UniProt A0R574, whole entry, looked up: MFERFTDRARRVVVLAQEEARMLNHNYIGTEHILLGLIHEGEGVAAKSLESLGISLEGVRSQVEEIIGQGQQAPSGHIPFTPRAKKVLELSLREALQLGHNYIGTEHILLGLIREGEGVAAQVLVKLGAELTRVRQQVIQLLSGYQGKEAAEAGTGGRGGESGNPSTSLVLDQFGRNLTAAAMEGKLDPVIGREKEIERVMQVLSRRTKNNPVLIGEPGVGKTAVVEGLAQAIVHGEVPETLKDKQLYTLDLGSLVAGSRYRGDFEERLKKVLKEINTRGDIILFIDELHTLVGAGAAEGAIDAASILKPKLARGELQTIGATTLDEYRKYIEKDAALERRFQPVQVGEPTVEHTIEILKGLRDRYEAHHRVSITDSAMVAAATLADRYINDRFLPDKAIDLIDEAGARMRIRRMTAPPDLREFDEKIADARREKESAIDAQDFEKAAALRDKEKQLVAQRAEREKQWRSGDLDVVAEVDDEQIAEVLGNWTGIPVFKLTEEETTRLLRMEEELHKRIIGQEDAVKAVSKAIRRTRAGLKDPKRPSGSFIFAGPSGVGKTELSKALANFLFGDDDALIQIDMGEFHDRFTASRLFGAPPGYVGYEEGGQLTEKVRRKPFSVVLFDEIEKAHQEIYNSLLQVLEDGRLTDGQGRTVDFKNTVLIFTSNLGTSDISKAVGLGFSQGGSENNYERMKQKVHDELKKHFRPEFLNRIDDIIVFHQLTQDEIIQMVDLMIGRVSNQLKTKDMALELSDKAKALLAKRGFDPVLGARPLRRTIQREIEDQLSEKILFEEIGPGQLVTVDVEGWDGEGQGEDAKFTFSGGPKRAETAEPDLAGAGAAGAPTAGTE

What was measured:
[1] = molecular target: B. subtilis ClpCP protease (Bacillus subtilis, UniProt P37571); test: In vitro degradation assay, B. subtilis ClpCP; type: biochemical; details: 2-h incubation, SDS-PAGE; for mSA-Kre degradation by ClpCP, BacPROTAC-1 analogs: DMSO control
[2] = molecular target: ClpC1NTD (Mycolicibacterium smegmatis, UniProt A0R574); test: ITC titration with M. smegmatis ClpC1NTD; type: binding, Mycobacterium smegmatis; details: read-out: KD ClpC1NTD, 25 °C, average ± SD of independent measurements
[3] = test system: mSA:ClpC1NTD; test: Analytical SEC, ternary complex mSA:ClpC1NTD; type: binding, Mycobacterium smegmatis; details: 25 μM proteins, 25 μM compound
[4] = molecular target: M. smegmatis ClpC1P1P2 (Mycolicibacterium smegmatis, UniProt A0R574); test: In vitro degradation assay, M. smegmatis ClpC1P1P2; type: biochemical, Mycobacterium smegmatis; details: 2-h incubation, SDS-PAGE
[5] = test system: mSA:ClpCNTD; test: Analytical SEC, ternary complex mSA:ClpCNTD; details: 25 μM proteins, 25 μM compound
[6] = molecular target: ClpCDWB (Bacillus subtilis, UniProt P37571, E280A/E618A); test: SEC and EM analysis of ClpC oligomeric state; details: ClpCDWB 25 μM, mSA-Kre 25 μM, 156 μM BacPROTAC-1

SMILES	mSA-Kre degradation by ClpCP, BacPROTAC-1 analogs [1]	Kd [2]	Ternary complex formation mSA:ClpC1NTD (SEC) [3]	mSA-Kre degradation by ClpCP ([1]; 1 μM compound)	mSA degradation by ClpCP ([1]; 100 μM compound)	mSA-Kre degradation by ClpC1P1P2 [4]	Ternary complex formation mSA:ClpCNTD (SEC) [5]	ClpC oligomeric state induced [6]
CC(=O)NC(CCCNC(=N)NP(=O)(O)O)C(=O)NCCOCCOCCC(=O)NCCOCCOCCC(=O)NC(CCCCNC(=O)CCCCC1SCC2NC(=O)NC21)C(N)=O (stereo not drawn)	degradation efficiency was not significantly influenced	–	–	–	–	–	–	–
CC(=O)NC(CCCNC(=N)NP(=O)(O)O)C(=O)NCCOCCOCCC(=O)NCCOCCOCCC(=O)NCCOCCOCCC(=O)NC(CCCCNC(=O)CCCCC1SCC2NC(=O)NC21)C(N)=O (stereo not drawn)	–	690 nM	promotes ternary complex formation	degraded	selective mSA depletion	induces the degradation of a mSA substrate in a highly selective and efficient manner	formation of a stable ternary complex	tetramer of ClpC hexamers
CC(=O)NC(CCCNC(=N)NP(=O)(O)O)C(=O)NCCOCCOCCC(=O)NC(CCCCNC(=O)CCCCC1SCC2NC(=O)NC21)C(N)=O (stereo not drawn)	degradation efficiency was not significantly influenced	–	–	–	–	–	–	–
